What is called pIC50 is the IC50 on a negative log10 scale, so that one unit is a factor of ten.

Sequences of proteins named here, by UniProt entry; tags and fusion partners are left off. A change or cut given only in a name is not applied to a line headed by its entry.
UniProt O00329: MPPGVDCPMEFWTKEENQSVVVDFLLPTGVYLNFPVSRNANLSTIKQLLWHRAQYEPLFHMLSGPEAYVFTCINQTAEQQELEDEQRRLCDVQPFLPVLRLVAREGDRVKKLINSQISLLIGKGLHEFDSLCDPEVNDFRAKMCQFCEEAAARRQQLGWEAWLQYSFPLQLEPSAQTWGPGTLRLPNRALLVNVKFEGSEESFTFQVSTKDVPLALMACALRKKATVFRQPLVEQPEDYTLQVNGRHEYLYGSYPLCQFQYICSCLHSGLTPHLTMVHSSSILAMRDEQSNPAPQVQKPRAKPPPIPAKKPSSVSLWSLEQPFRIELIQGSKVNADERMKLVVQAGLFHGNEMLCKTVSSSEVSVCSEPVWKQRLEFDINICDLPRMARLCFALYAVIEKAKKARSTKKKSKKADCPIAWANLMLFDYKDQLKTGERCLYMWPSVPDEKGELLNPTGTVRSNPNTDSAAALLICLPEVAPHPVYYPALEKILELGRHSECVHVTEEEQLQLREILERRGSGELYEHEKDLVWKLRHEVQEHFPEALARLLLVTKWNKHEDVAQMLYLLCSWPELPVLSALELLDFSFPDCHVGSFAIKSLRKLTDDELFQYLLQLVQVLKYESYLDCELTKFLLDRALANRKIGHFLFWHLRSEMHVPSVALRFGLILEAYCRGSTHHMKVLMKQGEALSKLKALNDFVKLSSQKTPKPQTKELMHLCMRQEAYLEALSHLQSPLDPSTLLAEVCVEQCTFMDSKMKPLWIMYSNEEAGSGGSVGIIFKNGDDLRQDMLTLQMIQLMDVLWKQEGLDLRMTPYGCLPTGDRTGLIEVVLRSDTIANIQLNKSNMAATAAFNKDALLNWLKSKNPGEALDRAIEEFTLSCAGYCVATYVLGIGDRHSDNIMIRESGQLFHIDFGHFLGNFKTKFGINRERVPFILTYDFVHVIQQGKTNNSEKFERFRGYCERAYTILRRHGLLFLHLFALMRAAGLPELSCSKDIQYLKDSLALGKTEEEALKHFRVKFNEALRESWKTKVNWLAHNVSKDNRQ

pIC50: −log10 of the molar value.

The target of the assay is PI3Kδ (p110δ/p85α) (Homo sapiens (Human), UniProt O00329). Nature of the assay: PI3Kδ scintillation proximity assay (Example A3). The class given is biochemical. The following applies: 20 μM ATP, 20 μM PIP2, 4 nM PI3Kδ; read-out: PI3Kδ SPA IC50. From the text:
[γ-^33P]ATP (10 mCi/mL) was purchased from Perkin-Elmer (Waltham, Mass.). Lipid kinase substrate, D-myo-Phosphatidylinositol 4,5-bisphosphate (PtdIns(4,5)P2)D (+)-sn-1,2-di-O-octanoylglyceryl, 3-O-phospho linked (PIP2), CAS 204858-53-7, was purchased from Echelon Biosciences (Salt Lake City, Utah). PI3Kδ (p110δ/p85α) was purchased from Millipore (Bedford, Mass.). ATP, MgCl2, DTT, EDTA, MOPS and CHAPS were purchased from Sigma-Aldrich (St. Louis, Mo.). Wheat Germ Agglutinin (WGA) YSi SPA Scintillation Beads was purchased from GE healthcare life sciences (Piscataway, N.J.).
The kinase reaction was conducted in polystyrene 384-well matrix white plate from Thermo Fisher Scientific in a final volume of 25 μL. Inhibitors were first diluted serially in DMSO and added to the plate wells before the addition of other reaction components. The final concentration of DMSO in the assay was 0.5%. The PI3K assays were carried out at room temperature in 20 mM MOPS, pH 6.7, 10 mM MgCl2, 5 mM DTT and CHAPS 0.03%. Reactions were initiated by the addition of ATP, the final reaction mixture consisted of 20 μM PIP2, 20 μM ATP, 0.2 μCi [γ-^33P]ATP, 4 nM PI3Kδ. Reactions were incubated for 210 min and terminated by the addition of 40 μL SPA beads suspended in quench buffer: 150 mM potassium phosphate pH 8.0, 20% glycerol. 25 mM EDTA, 400 μM ATP. The final concentration of SPA beads was 1.0 mg/mL. After the plate sealing, plates were shaken overnight at room temperature and centrifuged at 1800 rpm for 10 minutes, the radioactivity of the product was determined by scintillation counting on Topcount (Perkin-Elmer). IC50 determination was performed by fitting the curve of percent control activity versus the log of the inhibitor concentration using the GraphPad Prism 3.0 software. IC50 data for the Examples is presented in Table 10 as determined by Assay A3. IC50 data for Examples 361 and 363 is shown in Table 10a as determined by Assay A2.
For orientation: Scintillation proximity formats need no separation of bound from free tracer.
Consider `COc1c(C(C)n2nc(C)c3c(N)ncnc32)cc(Cl)c(F)c1C1CN(C(C)C)C1` (racemic) [Example 13, 1-{1-[5-Chloro-4-fluoro-3-(1-isopropylazetidin-3-yl)-2-methoxyphenyl]ethyl}-3-methyl-1H-pyrazolo[3,4-d]pyrimidin-4-amine bis(trifluoroacetate)], for which the pIC50 was at least 8.00. For the molecule `CCOc1c(C(C)n2ccc(=O)c3c(N)ncnc32)cc(Cl)c(C)c1-c1ccc(C(=O)N(C)C)nc1` (racemic) [Example 36, 5-{3-[1-(4-Amino-5-oxopyrido[2,3-d]pyrimidin-8(5H)-yl)ethyl]-5-chloro-2-ethoxy-6-methylphenyl}-N,N-dimethylpyridine-2-carboxamide bis(trifluoroacetate)], the pIC50 was at least 8.00. `COc1c(C(C)n2nc(C)c3c(N)ncnc32)cc(Cl)c(F)c1C1CN(C(C)C)C1` (single isomer, unassigned) [67 (1st peak), 1-{1-[5-Chloro-4-fluoro-3-(1-isopropylazetidin-3-yl)-2-methoxyphenyl]ethyl}-3-methyl-1H-pyrazolo[3,4-d]pyrimidin-4-amine]: the negative logarithm of the IC50 (pIC50) is at least 8.00.

For `CCOC(=O)C(C)(C)N1CC(c2c(C#N)c(Cl)cc(C(C)n3nc(C)c4c(N)ncnc43)c2OCC)C1` (single isomer, unassigned) [Example 238, Ethyl 2-(3-{3-[1-(4-amino-3-methyl-1H-pyrazolo[3,4-d]pyrimidin-1-yl)ethyl]-5-chloro-6-cyano-2-ethoxyphenyl}azetidin-1-yl)-2-methylpropanoate], the pIC50 was at least 8.00.

For the origin of these results see patent publication US9707233B2, “Heterocyclylamines as PI3K inhibitors” (Incyte Corporation, priority 2011, dated 2017).
